The values below come from patent US20230243822A1, “MOLECULAR DISEASE PROFILE AND USE THEREOF FOR MONITORING AND TREATING RHEUMATAOID ARTHRITIS” (JANSSEN BIOTECH, INC., priority 2020, published 2023).

The subject of assay [1] is 4-analyte M-DP panel (CRP, SAA, CXCL10, CXCL13). Nature of the assay: Pharmacodynamic 4-analyte M-DP score by MSD U-PLEX, CORRONA CERTAIN biorepository serum. Particulars: U-PLEX 4-analyte; for M-DP score GMean decrease: all treated; for M-DP score mean difference ± SD, Good vs. No: 6-month response. The assay is classed as in vivo, human. The source says:
Additionally, a validation set of serum samples were commercially obtained (CERTAIN Biorepository (Pappas AD, et al. BMC Musculoskelet Disord. 2014 Apr. 1; 15:113), Coronna, LLC) for RA patients treated with rituximab (n=12) or abatacept (n=38), with serum samples obtained at baseline and at 3-months and 6-months of treatment. EULAR DAS28-CRP clinical response rates were 50% and 58% for good response, 32% and 33% for moderate response, and 18% and 8% no response, for rituximab and abatacept treatment groups, respectively.
Using custom-designed Meso Scale Discovery (MS) U-PLEX panels, concentrations of CRP and SAA in panel one and CXCL10 and CXCL13 in panel 2, along with IL-6, were measured in the Coronna CERTAIN Biorepository serum samples from rituximab (Rituxan) and abatacept (Orencia)-treated RA patients. PD M-DP scores for the 4-analyte panel were calculated based on these concentrations of CRP, SAA, CXCL10, and CXCL13.
The 4-analyte panel of CRP, SAA, CXCL10, and CXCL13 was measured by MSD U-PLEX assays in serum samples from 38 abatacept- and 12 rituximab-treated RA patients at baseline and 3—and 6—month visits. These samples were not previously evaluated for the M-DP panel development or reduction. Decreases in M-DP scores concurred with the clinical efficacy observed for abatacept treatment, with significant PD M-DP scores at 3—and 6—months for abatacept (GMean 45% decrease, p<0.0001 for both) (Table 6). […] Significant M-DP scores were also observed for rituximab at 6-months (GMean 36% decrease, p=0.040), with a trend for scores below zero at 3-months (GMean 30% decrease, p=0.17) (Table 6).

A further assay concerns RA patients. Particulars: CERTAIN Biorepository RA patients; cited from earlier work.
The mark [2] stands for this setting: month 3, week 24 EULAR DAS28-CRP response.

With abatacept, in assay [1] (3-months), the “M-DP score GMean decrease” value was found to be 45%. Also, the “M-DP score GMean decrease” value in assay [1] (6-months) stood at 45%. Besides, in assay [1] (setting [2]), the “M-DP score GMean decrease, good response group” value stood at 51%; the “M-DP score GMean decrease, moderate response group” value came to 49%; the “M-DP score GMean decrease, no response group” value came to 16%. In assay [1] (score at month 3M), the “M-DP score mean ± SD, 6-month DAS28-CRP response group Good” value is −1.04 ± 1.07 [19] + log2 (fold/baseline); the “M-DP score mean ± SD, 6-month DAS28-CRP response group Moderate” value was −0.96 ± 0.97 [12] * log2 (fold/baseline); the “M-DP score mean ± SD, 6-month DAS28-CRP response group No” value is −0.25 ± 0.71 [7] log2 (fold/baseline); the “M-DP score mean ± SD, All treated” value was −0.87 ± 1.01 [38] + log2 (fold/baseline). Moreover, the “M-DP score mean difference ± SD, Good vs. No” value in assay [1] (score at month 3M) is recorded as −0.79 + 0.99 (0.0044) log2 (fold/baseline). For the same substance, in assay [1] (score at month 6M), the “M-DP score mean ± SD, 6-month DAS28-CRP response group Good” value is −1.21 ± 0.95 [19]+ log2 (fold/baseline); the “M-DP score mean ± SD, 6-month DAS28-CRP response group Moderate” value was −0.84 ± 1.10 [12] * log2 (fold/baseline); the “M-DP score mean ± SD, 6-month DAS28-CRP response group No” value was 0.13 ± 0.94 [7] log2 (fold/baseline); the “M-DP score mean ± SD, All treated” value was −0.85 ± 1.09 [38] + log2 (fold/baseline). The “M-DP score mean difference ± SD, Good vs. No” value in assay [1] (score at month 6M) was −1.34 ± 0.94 (0.0084) log2 (fold/baseline). Also, in the assay with RA patients, the “EULAR DAS28-CRP clinical response rate, good response” value is listed as 58%; the “EULAR DAS28-CRP clinical response rate, moderate response” value was 33%; the “EULAR DAS28-CRP clinical response rate, no response” value was 8%.
